According to ChEMBL document CHEMBL1125897:

Species: Homo sapiens
Assay: Plasma half-life of drug (human metabolism)
Settings: in vivo

CCC(=O)N(c1ccccc1)C1(C(=O)OC)CCN(CCC(=O)OC)CC1
T1/2: 37 min

Only a part of the results on these compounds is given; other tests are left out.
